The target of this assay is Mandelate racemase (Pseudomonas putida, UniProt P11444).

Chains of the proteins cited; added tags and fusions are not shown.
UniProt P11444, whole entry, looked up: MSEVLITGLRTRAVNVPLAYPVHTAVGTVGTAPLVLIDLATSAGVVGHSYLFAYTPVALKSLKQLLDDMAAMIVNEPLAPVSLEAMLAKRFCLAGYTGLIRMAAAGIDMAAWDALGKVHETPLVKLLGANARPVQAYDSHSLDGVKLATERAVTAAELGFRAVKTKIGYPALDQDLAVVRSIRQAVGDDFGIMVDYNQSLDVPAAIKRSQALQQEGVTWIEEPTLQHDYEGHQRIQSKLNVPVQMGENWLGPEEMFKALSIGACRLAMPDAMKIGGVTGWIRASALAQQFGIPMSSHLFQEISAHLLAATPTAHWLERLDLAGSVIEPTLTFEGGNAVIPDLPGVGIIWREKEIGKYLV

In turn, `O=C(O)C(O)(c1ccccc1)c1ccccc1` gave a Ki of 700 µM.

For the origin of these results see BindingDB's records for 24314397.
